Measurements: patent US6972340B2, “Selective protein tyrosine phosphatatase inhibitors” (Abbott Laboratories, priority 2000, dated 2005)

Assays:
Type in all cases: biochemical
Conditions in all cases: from Kic of Table 1
SHP-2 (full length) = target: T1, SHP-2 (full length) (Homo sapiens, UniProt Q06124); experiment: Inhibition constant determination, selectivity panel: SHP-2 (pNPP hydrolysis)
T1 construct: SHP-2 (full length) was expressed in from E. coli; made in house; host or cells: E. coli

LAR = target: T2, LAR (Homo sapiens, UniProt P10586); experiment: Inhibition constant determination, selectivity panel: LAR (pNPP hydrolysis)
T2 construct: purchased New England Biolabs P0750L
T2 sequence (P10586 1301-1639 limits assumed): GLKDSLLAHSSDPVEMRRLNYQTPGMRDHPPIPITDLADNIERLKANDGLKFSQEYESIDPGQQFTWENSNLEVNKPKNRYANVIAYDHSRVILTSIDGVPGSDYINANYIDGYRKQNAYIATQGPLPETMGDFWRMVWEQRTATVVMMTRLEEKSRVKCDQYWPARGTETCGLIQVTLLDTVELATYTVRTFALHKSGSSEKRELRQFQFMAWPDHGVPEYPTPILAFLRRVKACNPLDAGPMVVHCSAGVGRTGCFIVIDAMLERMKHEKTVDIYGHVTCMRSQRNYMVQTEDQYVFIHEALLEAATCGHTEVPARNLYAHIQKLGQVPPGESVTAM

CD45 = target: T3, CD45 (Homo sapiens, UniProt P08575); experiment: Inhibition constant determination, selectivity panel: CD45 (pNPP hydrolysis)
T3 construct: purchased Biomol Research Laboratories, Inc. SE-135
T3 sequence (P08575 609-1306 limits assumed): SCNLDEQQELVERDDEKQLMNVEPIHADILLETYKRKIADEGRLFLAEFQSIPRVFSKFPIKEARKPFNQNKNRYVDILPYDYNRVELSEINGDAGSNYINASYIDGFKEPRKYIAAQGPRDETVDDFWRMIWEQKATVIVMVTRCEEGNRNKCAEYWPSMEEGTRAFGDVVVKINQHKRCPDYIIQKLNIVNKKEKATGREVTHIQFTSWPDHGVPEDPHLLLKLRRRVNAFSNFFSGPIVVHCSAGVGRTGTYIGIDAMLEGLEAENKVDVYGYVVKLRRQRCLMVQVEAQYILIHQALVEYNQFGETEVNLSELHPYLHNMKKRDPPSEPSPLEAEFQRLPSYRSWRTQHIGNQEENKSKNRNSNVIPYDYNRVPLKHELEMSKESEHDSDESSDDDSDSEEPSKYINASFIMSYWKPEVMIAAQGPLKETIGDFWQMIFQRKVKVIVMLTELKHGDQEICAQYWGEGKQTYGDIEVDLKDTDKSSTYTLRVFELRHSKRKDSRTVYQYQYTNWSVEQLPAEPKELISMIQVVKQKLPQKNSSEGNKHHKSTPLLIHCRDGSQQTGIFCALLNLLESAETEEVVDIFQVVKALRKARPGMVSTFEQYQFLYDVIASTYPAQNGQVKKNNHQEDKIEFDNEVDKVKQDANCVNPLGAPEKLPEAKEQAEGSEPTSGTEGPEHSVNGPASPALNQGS

Bovine PP2B = target: T4, Bovine PP2B (Bos taurus, UniProt P48452); experiment: Inhibition constant determination, selectivity panel: PP2B (pNPP hydrolysis)
T4 construct: purchased Sigma C1907

Cdc25c = target: T5, Cdc25c (Homo sapiens, UniProt P30307); experiment: Inhibition constant determination, selectivity panel: Cdc25c (pNPP hydrolysis)
T5 construct: GST (glutathione-S-transferase); made in house; host or cells: E. coli
T5 sequence (P30307 1-473): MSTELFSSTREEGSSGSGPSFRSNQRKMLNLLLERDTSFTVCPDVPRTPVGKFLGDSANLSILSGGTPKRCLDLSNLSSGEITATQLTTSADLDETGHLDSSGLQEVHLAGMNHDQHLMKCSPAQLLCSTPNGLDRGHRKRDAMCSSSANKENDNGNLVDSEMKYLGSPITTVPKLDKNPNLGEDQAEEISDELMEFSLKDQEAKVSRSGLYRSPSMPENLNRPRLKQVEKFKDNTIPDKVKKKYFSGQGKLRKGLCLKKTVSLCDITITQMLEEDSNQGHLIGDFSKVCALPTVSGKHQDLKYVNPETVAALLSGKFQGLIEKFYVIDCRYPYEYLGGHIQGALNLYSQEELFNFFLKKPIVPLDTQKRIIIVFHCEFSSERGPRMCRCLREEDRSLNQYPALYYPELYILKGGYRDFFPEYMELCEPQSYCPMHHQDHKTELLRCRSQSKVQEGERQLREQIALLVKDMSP

SMILES: CCc1cc(C[C@H](NC(C)=O)C(=O)NCCCCOc2cccc(O)c2C(=O)OC)ccc1N(C(=O)C(=O)O)c1ccccc1C(=O)O [Example 13, methyl 2-{4-[(N-acetyl-4-[(carboxycarbonyl)(2-carboxyphenyl)amino]-3-ethylphenylalanyl)amino]butoxy}-6-hydroxybenzoate]
- selective for PTP1B over SHP-2 (SHP-2 (full length)): 50 fold
- selective for PTP1B over LAR (LAR): 50 fold
- selective for PTP1B over CD45 (CD45): 2,000 fold
- selective for PTP1B over PP2B (Bovine PP2B): 2,000 fold
- selective for PTP1B over Cdc25C (Cdc25c): 2,000 fold
